# AlphaSeq binding of Ab-91 heavy chain variants to a spike HR2 peptide

Reference: Engelhart et al. 2022, doi:10.1038/s41597-022-01779-4. File: FLAb, binding data.

Antigen: PDVDLGDISGINAS, a 14-residue peptide of the SARS-CoV-2 spike HR2 region.

Parent: Ab-91, a human scFv built as VL, a (GGGGS)3 linker, VH. Only the CDRs of the heavy chain vary.
VL: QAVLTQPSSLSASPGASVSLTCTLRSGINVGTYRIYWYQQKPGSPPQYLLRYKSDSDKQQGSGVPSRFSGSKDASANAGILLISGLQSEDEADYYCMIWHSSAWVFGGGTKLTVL
VH: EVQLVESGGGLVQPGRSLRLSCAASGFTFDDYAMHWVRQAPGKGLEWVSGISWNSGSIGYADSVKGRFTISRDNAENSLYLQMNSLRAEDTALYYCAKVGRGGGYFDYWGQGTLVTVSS

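The parent was found by panning a naive human phage display library on the peptide. In library AAYL51, one, two or three CDR residues were substituted; doubles and triples were drawn at random. AlphaSeq pools MATa yeast showing the antibodies with MATalpha yeast showing the peptide. The frequency of each diploid, read from paired DNA barcodes, reflects how well the two displayed proteins bind. A regression on co-assayed BCL2-family reference pairs converts the normalised counts of each replicate to an apparent Kd. Each pool was mated in three replicate cultures.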

Sequences are complete VH domains. Scale: log10 of Kd in nM, estimated from mating counts; low values are strong binders. Replicates are averaged; those with no signal do not enter the mean. An entry "nd" has no value in the source: the pair was not observed among the diploids in that replicate. This suggests poor binding but is not conclusive. As a blank, each scFv also met three strains without target: over library AAYL51, 21% of these pairings were detected, typically at 4.54 and seldom below 3.26. The control count says in how many pairings with the empty strains this scFv gave a signal, with their mean in brackets. Parent in this assay: reference entry 1.86, copy in this library 0.88.

| VH | replicates, log10 nM | mean log10 Kd (nM) | empty controls |
|---|---|---|---|
| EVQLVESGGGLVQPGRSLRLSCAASYFTFDDYAMHWVRQAPGKGLEWVSGIIWNSGSIGYATSVKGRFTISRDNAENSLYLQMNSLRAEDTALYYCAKVGRGGGYFDYWGQGTLVTVSS | nd nd nd | nd | 1 of 9 (4.68) |
| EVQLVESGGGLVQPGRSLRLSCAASGFTFDDYAMHWVRQAPGKGLEWVSGISWNSGSIGYATSVKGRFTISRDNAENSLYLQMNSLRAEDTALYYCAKVGSGGGGFDYWGQGTLVTVSS | nd nd nd | nd | 1 of 9 (3.78) |
| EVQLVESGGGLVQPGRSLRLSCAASGFTNDDYAMHWVRQAPGKGLEWVSGIDFNSGSIGYADSVKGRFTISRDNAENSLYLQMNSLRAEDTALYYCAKVGRGGGYFDYWGQGTLVTVSS | nd nd nd | nd | 1 of 9 (3.03) |
| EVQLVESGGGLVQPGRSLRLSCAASGFTFDDYAMHWVRQAPGKGLEWVSGISWNSGSCGYADGVKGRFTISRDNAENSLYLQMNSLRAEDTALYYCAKVGRGGGYFDYWGQGTLVTVSS | nd nd nd | nd | 0 of 9 |
| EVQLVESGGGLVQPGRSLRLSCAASGFTFDDYAEHWVRQAPGKGLEWVSGDSWNSGSIGYADSVKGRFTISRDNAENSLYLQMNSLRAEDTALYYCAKVGRGGGYFDYWGQGTLVTVSS | nd nd nd | nd | 0 of 9 |
| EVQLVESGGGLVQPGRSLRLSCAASGFTFDDYAMHWVRQAPGKGLEWVSGISWNSASIGYADSVKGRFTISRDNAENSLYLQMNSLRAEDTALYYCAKVWRMGGYFDYWGQGTLVTVSS | 2.20 2.43 1.64 | 2.09 | 3 of 9 (4.18) |
| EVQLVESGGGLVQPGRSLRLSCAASGFTFLDYAMHWVRQAPGKGLEWVSGISWNSGSIGYADSVKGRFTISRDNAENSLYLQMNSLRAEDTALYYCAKVGQWGGYFDYWGQGTLVTVSS | nd nd nd | nd | 0 of 9 |
| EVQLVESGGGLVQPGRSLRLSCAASGFTFDDYDMIWVRQAPGKGLEWVSGISWNSGSIGYADSVKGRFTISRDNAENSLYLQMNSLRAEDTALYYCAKVGRGGPYFDYWGQGTLVTVSS | 4.62 nd 5.48 | 5.05 | 6 of 9 (4.24) |
| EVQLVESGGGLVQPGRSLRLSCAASGFTFDDYAMHWVRQAPGKGLEWVSGIKWNSISIGYADSVKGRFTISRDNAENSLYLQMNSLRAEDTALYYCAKVGRAGGYFDYWGQGTLVTVSS | nd nd nd | nd | 4 of 9 (3.63) |
| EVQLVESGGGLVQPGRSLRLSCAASGFTFDDYAMHWVRQAPGKGLEWVSGISWNSGSIFYADSVKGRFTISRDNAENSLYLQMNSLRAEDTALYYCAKVGRGWGYFDTWGQGTLVTVSS | nd nd 4.75 | 4.75 | 7 of 9 (4.33) |
| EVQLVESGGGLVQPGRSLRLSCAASGFTFDDYAMNWVRQAPGKGLEWVSGISWTSGSIGYADSVKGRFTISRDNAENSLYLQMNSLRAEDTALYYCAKVGREGGYFDYWGQGTLVTVSS | nd nd nd | nd | 4 of 9 (4.46) |
| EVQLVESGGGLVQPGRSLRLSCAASGFTFDDYAMHWVRQAPGKGLEWVSGISWNSWSIGYADSVKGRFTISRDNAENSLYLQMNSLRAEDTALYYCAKSGRGGGDFDYWGQGTLVTVSS | 4.65 5.62 nd | 5.14 | 3 of 9 (4.54) |
| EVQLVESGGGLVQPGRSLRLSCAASGFTFDSTAMHWVRQAPGKGLEWVSGISWNSGSIGYCDSVKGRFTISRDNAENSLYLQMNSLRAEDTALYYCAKVGRGGGYFDYWGQGTLVTVSS | 1.15 1.13 0.60 | 0.96 | 2 of 9 (4.21) |
| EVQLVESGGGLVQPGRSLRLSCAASGFTFDDKAAHWVRQAPGKGLEWVSGISWNSGSRGYADSVKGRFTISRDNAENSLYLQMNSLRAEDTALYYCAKVGRGGGYFDYWGQGTLVTVSS | nd nd nd | nd | 1 of 9 (4.56) |
| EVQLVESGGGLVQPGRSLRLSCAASGFTFDDYAMHWVRQAPGKGLEWVSGISWNSGSITYAHSVKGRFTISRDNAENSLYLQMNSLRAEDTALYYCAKVGRGGGYFDPWGQGTLVTVSS | nd nd 4.93 | 4.93 | 3 of 9 (4.29) |
| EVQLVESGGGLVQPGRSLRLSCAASGFTFDDYAMHWVRQAPGKGLEWVSLISWNSGSIGYADSVKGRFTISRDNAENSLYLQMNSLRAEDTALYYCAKVGRGGGYFDSWGQGTLVTVSS | 5.17 6.22 nd | 5.69 | 7 of 9 (4.59) |
| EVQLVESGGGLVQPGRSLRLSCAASGFTFDDYAMWWVRQAPGKGLEWVSGISWNSGSIGYADSCKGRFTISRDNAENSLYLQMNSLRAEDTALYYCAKTGRGGGYFDYWGQGTLVTVSS | 4.29 nd nd | 4.29 | 1 of 9 (4.70) |
| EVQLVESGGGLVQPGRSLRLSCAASGFTFDDMAMDWVRQAPGKGLEWVSGISWNSGSIGYADSVKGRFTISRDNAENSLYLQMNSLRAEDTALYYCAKVGRGGGYFDYWGQGTLVTVSS | nd nd nd | nd | 1 of 9 (3.63) |

Extract of 2 entries:

{"VH": "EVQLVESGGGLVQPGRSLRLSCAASGFTFDDYAEHWVRQAPGKGLEWVSGDSWNSGSIGYADSVKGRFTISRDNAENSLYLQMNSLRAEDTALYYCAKVGRGGGYFDYWGQGTLVTVSS", "replicates, log10 nM": "nd nd nd", "mean log10 Kd (nM)": "nd", "empty controls": "0 of 9"}
{"VH": "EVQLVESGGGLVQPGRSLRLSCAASGFTFDDYAMNWVRQAPGKGLEWVSGISWTSGSIGYADSVKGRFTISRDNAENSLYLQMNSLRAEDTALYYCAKVGREGGYFDYWGQGTLVTVSS", "replicates, log10 nM": "nd nd nd", "mean log10 Kd (nM)": "nd", "empty controls": "4 of 9 (4.46)"}